The values that follow are results of earlier work, collected in US20220000880A1, “METHOD AND COMPOSITION EMBODIMENTS FOR TREATING ACUTE MYELOID LEUKEMIA” (Rigel Pharmaceuticals, Inc., priority 2018, published 2022).

This data set has as its system FLT3-ITD positive AML patients. To be noted: FLT3-ITD positive AML patients relapsed after stem cell transplantation or after failure of salvage chemotherapy; cited from earlier work.

Take `CC(C)(C)c1cc(NC(=O)Nc2ccc(-c3cn4c(n3)sc3cc(OCCN5CCOCC5)ccc34)cc2)no1` [quizartinib]: the overall survival entry is “significantly improved overall survival”.
